The numbers were not newly measured in US20170299609A1, “TREATMENT OF AMYOTROPHIC LATERAL SCLEROSIS WITH SK CHANNEL ACTIVATORS” (Wright State University, priority 2016, published 2017), which cites them from elsewhere.

Each structure is given as a SMILES string.

The subject of this series is humans with ALS. To be noted: cited from earlier work.

Turning to `Nc1nc2ccc(OC(F)(F)F)cc2s1` [riluzole], the “extension of survival of humans with ALS, on average” value is given as “about 3 months”.
